Data from article PMC2860599.

Target: β2-monomeric yellow fluorescent protein (β2-mYFP)
Assay: FRET or BRET

FRET efficiency: 0.2
Substance: αM-monomeric cyan fluorescent protein (αM-mCFP) (from UniProt P11215 17-1152) (receptor)
